From PubChem BioAssay AID1217 (Sanford-Burnham Center for Chemical Genomics, 2008)
The list shows a part of the results, in another mix than the full data. Active and inactive are the calls of the source.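 Rule for the calls: active = primary screen inhibition at 20 µM above a set limit (cut at about 50% in these data); inactive = the rest.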

Test system: diaphorase (Clostridium kluyveri)
Experiment: compounds blocking diaphorase resazurin reduction – biochemical, uHTS, resorufin fluorescence, counter-screen for diaphorase-coupled primary assays, primary screen (AID 1217);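 note: plate controls were DMSO with full reaction for no effect and wells lacking NADH for full effect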
Settings: diaphorase resazurin-to-resorufin fluorescence, NADH, 16 min; at 20 µM; stronger effect = higher value; bacterial (C. kluyveri) enzyme, not human

Row | SMILES | inhibition
1 | COc1ccc(OP(C)(=O)Nc2ccccn2)cc1 (stereo unspecified) | inactive: 11.7%
